Measurements published in ChEMBL document CHEMBL1129605, “Synthesis, structure-activity relationships, and molecular modeling studies of N-(indol-3-ylglyoxylyl)benzylamine derivatives acting at the benzodiazepine receptor” (J Med Chem, 1996).

Protein sequences, listed by entry. Tags and fused reporters are not part of them. Lines headed by an entry give the natural chain unless they say otherwise; changes in a name come on top.
UniProt P10063: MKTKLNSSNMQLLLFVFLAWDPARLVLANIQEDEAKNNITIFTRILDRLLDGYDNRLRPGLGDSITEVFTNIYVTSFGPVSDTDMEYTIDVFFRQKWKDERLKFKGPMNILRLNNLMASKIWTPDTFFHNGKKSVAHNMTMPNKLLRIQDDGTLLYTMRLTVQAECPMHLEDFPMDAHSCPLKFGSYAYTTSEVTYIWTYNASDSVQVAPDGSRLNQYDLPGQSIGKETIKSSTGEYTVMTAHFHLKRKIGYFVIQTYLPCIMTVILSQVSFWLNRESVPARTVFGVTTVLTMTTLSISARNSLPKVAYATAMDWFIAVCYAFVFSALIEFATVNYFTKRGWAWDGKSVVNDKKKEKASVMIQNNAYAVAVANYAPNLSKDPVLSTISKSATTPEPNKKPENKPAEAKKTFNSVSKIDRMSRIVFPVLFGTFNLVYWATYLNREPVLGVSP
UniProt P08220: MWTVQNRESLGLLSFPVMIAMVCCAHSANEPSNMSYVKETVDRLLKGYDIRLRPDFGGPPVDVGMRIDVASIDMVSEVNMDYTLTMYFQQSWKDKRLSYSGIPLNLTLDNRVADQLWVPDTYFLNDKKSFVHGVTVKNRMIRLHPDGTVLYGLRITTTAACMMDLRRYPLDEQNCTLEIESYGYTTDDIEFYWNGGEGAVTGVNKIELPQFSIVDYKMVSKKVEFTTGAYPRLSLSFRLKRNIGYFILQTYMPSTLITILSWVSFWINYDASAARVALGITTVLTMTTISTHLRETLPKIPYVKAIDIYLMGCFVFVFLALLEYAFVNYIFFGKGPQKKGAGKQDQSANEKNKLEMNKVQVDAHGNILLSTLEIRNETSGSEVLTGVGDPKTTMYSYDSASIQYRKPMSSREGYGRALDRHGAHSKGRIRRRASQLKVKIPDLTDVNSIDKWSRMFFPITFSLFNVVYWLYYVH
UniProt P20237: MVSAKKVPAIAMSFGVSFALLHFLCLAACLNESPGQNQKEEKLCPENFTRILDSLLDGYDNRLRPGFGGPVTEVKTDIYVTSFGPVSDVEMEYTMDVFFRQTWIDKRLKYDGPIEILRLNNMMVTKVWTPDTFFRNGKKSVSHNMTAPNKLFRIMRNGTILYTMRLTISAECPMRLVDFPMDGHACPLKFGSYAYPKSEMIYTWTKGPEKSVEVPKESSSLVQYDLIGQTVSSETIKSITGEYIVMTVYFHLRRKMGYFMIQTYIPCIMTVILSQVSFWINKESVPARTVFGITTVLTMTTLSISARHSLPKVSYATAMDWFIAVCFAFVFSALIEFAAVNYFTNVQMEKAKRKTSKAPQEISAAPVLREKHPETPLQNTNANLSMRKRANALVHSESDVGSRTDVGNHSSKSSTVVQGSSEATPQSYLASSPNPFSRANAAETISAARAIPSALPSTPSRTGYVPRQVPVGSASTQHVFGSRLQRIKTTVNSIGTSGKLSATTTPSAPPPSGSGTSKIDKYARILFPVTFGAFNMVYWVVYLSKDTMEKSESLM
UniProt P08219: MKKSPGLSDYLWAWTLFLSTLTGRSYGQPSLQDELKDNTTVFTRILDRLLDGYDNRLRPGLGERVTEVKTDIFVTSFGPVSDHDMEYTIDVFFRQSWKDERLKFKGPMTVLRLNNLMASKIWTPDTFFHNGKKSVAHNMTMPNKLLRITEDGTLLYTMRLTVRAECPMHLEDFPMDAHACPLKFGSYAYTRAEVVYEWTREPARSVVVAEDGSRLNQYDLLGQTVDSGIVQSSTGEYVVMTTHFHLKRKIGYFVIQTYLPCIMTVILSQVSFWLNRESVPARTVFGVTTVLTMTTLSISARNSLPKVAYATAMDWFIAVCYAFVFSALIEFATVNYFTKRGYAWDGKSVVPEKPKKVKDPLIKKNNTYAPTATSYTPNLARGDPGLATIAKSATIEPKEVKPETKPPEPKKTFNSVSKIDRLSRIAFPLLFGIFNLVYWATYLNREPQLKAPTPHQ
UniProt P10064: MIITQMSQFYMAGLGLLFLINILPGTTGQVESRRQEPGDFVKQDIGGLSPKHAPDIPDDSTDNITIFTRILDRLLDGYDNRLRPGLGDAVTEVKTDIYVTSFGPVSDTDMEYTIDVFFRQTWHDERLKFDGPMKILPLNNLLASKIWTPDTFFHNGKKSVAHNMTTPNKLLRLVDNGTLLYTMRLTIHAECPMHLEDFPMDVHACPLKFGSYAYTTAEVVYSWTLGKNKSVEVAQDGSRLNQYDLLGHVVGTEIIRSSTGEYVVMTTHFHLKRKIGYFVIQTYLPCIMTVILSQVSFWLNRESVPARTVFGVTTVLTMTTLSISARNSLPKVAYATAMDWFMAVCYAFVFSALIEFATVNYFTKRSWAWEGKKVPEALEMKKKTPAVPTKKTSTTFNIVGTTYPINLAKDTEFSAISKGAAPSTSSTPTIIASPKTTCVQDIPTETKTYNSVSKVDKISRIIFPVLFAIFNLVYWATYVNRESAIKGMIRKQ
UniProt P22300: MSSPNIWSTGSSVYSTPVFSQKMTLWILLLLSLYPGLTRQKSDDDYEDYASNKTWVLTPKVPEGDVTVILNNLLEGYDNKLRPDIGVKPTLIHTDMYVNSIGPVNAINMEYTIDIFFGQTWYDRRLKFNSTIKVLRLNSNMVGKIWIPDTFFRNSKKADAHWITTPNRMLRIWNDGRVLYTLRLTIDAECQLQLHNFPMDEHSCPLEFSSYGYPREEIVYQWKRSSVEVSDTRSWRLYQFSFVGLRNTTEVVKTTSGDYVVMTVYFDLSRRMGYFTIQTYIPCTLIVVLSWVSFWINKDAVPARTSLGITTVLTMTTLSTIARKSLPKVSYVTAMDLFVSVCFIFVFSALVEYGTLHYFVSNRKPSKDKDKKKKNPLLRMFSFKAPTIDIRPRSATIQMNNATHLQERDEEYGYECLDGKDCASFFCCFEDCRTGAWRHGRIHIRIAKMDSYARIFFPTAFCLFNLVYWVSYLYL

Molecular target: GABA-A receptor; anion channel (Bos taurus) (UniProt P10063+P08220+P20237+P08219+P10064+P22300)
Assay: Relative binding to GABA-A receptor in the presence and absence of GABA (GABA shift), Ki(-GABA)/Ki(+GABA)
Format: protein-complex assay

## O=C1CN=C(c2ccccc2Cl)c2cc([N+](=O)[O-])ccc2N1
  GABA ratio: 1.97
